In patent US11103557 one finds EC50 (nM), activity on GLP-1 receptor (CRE luciferase reporter) data, which are given here for 1 substance.

This experiment has as its target GLP-1 receptor. The experiment is described as follows: cell-based or functional assay.

Exenatide (Exendin-4) (peptide) registered an EC50 (nM), activity on GLP-1 receptor (CRE luciferase reporter) of 0.112 nM.
